Most compounds without a hit are left out; they make up all but 1.7% or so of the library.
PTHR1 agonist = activates the human parathyroid hormone receptor PTHR1 | actives 0.075% (n = 410,000) | HEK293 GP2 PTHR1 cells, GloSensor cAMP luminescence, 1 h | Potency, µM (top dose mostly 115 µM), without a hit: at the highest dose activation, hits mostly activators | AID 743266; note: potency is the fitted concentration of half-maximal effect; nearly all actives have a fitted effect of over 55% in size
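HEK-293-derived GP2 cells expressing PTHR1 and a GloSensor cAMP reporter, 3,000/well, plated overnight, given luciferin plus IBMX (each 0.5 mM as added) for 1 h at 37 °C, then compound for 1 h at 37 °C. Luminescence was read after 15 min at room temperature.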
miR-21 reporter = miR-21 reporter, rising signal; HeLa miR-21 FLuc reporter, luciferase, 48 h; Potency, µM (top dose mostly 38.3 µM), without a hit: at the highest dose reporter change, positive = more light; 340,000 tested, under 10 active; active = well fitted rising curve with a large enough effect; inconclusive = small, poorly fitted or top-dose-only effect; inactive = no such curve, though single readings can be large or run the other way;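 further: % of control where 0% means no effect; miR-21 action dims this reporter so a rising signal means less miR-21 action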
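Luminescence from a firefly luciferase reporter carrying a miR-21 binding site downstream, stably expressed under a CMV promoter in HeLa cells that make miR-21 endogenously, reports miRNA modulation after 48 h compound exposure up to approximately 40uM final.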
GLP1R ag = activates the human GLP-1 receptor; HEK293 GLP-1R CRE-luciferase, luminescence, 4-6 h; cells express a hypersensitive GLP-1R form; actives 0.007% (n = 380,000); Potency, µM (top dose mostly 45.6 µM), inactives show at the highest dose activation, actives largely listed as activators; note: potency is the fitted concentration of half-maximal effect; % of control where 0% means no effect
HEK293 tox = cytotoxicity in counter-screen for GLP-1R inverse agonists; HEK293 cAMP-luciferase reporter cells, luminescence, 24 h; AID 624418; actives 0.13% (n = 410,000); Potency, µM (highest dose often 38.3 µM), for inactives: at the highest dose activity change, negative = inhibition, actives largely listed as inhibitors;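 note: loss of luciferase light is scored as toxicity; potency is the fitted concentration of half-maximal effect; % is set by controls: 0 for no effect and ±100 for the full control effect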
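Quantitative HTS format, 1536 wells, 200 cells/uL seeded. Compounds: 23 nL, 24 h, 37 °C. Detection: luciferase reagent, luminescence at 12 min RT; decreased signal taken as cytotoxic.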
GLP1R inv ag = GLP-1 receptor (human) inverse agonism; Potency, µM (series often up to 38.3 µM), for the others: top-dose activity change, negative = inhibition, actives largely listed as inhibitors; HEK293 GLP-1R CRE-luciferase, luminescence, 24 h; GLP-1R form is constitutively active; actives 1.6% (n = 410,000); AID 624417; note: potency is the fitted concentration of half-maximal effect; % is set by controls: 0 for no effect and ±100 for the full control effect; nearly all actives have a fitted effect of over 55% in size
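Using stably transfected HEK293 (constitutively active GLP-1R, cAMP-luciferase reporter), compounds were incubated 24 hr and luciferase measured by luminescence.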
Pin1 inh = blocks the human prolyl isomerase Pin1. Q13526. Pin1 FP peptide displacement, HiFluor488, 10 min. Potency, µM (top dose mostly 115 µM), inactives show at the highest dose activity, negative = inhibition, hits mostly inhibitors. actives 0.009% (n = 390,000); active = well fitted inhibition curve with a large enough effect in the polarisation, with a control signal flat, not every such curve was filed as active; inconclusive = small, poorly fitted or top-dose-only effect, or effect the other way, or a change in a side signal; inactive = no such curve, though single readings can be large or run the other way; the % refers to the polarisation; note: potency is the fitted concentration of half-maximal effect; % is set by controls: 0 for no effect and ±100 for the full control effect
* hit, by the source's call; i = inactive; u = inconclusive; x = not tested or not shown. Unless noted, calls come from the whole dose curve; as a rule, active = well fitted curve in the direction sought with a large enough effect; inconclusive = small, poorly fitted or top-dose-only effect, or another doubt; inactive = no such curve, though single readings can be large; an effect the other way counts as inactive or inconclusive.

1: Cc1ccccc1NC(=O)/C(=C/c1ccco1)c1ccccc1
2: Cc1ccc(CN2CCN(CCCn3cnc4c(OCc5ccccc5)ncnc43)CC2)cc1
3: c1ccc(CNCCCn2cnc3c(OCc4ccccc4)ncnc32)cc1
4: Cc1cc(C)c(CN2CCN(C(=O)Cn3cnc4c(OCc5ccccc5)ncnc43)CC2)c(C)c1
5: O=C(CNC(=O)c1cccc(Cl)c1)OC(C(=O)Nc1cc(C(F)(F)F)ccc1Cl)c1ccccc1 (stereo not given)
Compound	1	2	3	4	5
PTHR1 agonist	-2%	-43%	i	-42%	x
miR-21 reporter	-7%	x	x	x	x
GLP1R ag	2%	-3%	13%	0%	x
HEK293 tox	-1%	-19%	15%	-11%	x
GLP1R inv ag	u	8.9µM*	-20%	6.3µM*	x
Pin1 inh	3%	10%	5%	12%	20%

6: CN(C(=O)c1ccc(-c2ccccc2)cc1)C1CCCCC1
7: Cc1nc2n(c(=O)c1CCN1CCC(c3noc4cc(F)ccc34)CC1)CCC[C@@H]2O
8: NC1(C(=O)O)CSSC1
9: CCN(CC)CCn1c(=N)n(CC(O)COc2cccc(C)c2)c2ccccc21 (stereo not given)
10: CCN(CC)CCn1c(=N)n(CC(O)COc2ccccc2C)c2ccccc21 (stereo not given)
Compound	6	7	8	9	10
PTHR1 agonist	i	x	-9%	i	u
miR-21 reporter	x	x	x	4%	3%
GLP1R ag	19%	0%	0%	7%	x
HEK293 tox	1%	x	11µM*	u	u
GLP1R inv ag	10µM*	x	u	u	10µM*
Pin1 inh	-2%	x	2%	-8%	2%

11: Cc1cccc(OCC(O)Cn2c(=N)n(Cc3ccccc3)c3ccccc32)c1 (stereo not given)
12: COc1ccc(OCC(O)Cn2c(=N)n(Cc3ccccc3)c3ccccc32)cc1 (stereo not given)
13: Cc1ccc(OCC(O)Cn2c(=N)n(Cc3ccccc3)c3ccccc32)cc1 (stereo not given)
14: O=C(Nc1nc2cc3c(cc2s1)OCO3)C1=COCCO1
15: CC(=O)Nc1nc2cc3c(cc2s1)OCO3
Compound	11	12	13	14	15
PTHR1 agonist	-4%	u	-96%	-49%	-3%
miR-21 reporter	u	25%	u	u	-38%
GLP1R ag	-3%	-20%	-5%	-15%	4%
HEK293 tox	-16%	7.9µM*	u	-8%	8%
GLP1R inv ag	u	u	11µM*	2.2µM*	-3%
Pin1 inh	1%	-2%	1%	15%	-3%

16: CCCN1CNc2c(c(=O)[nH]c(=S)n2CCc2cccc(C)c2)C1
17: NC(=O)[C@H]1CC2(CC(c3cccc(NC(=O)COc4ccc(Cl)cc4)c3)=NO2)CN1C(=O)CC(c1ccccc1)c1ccccc1 (stereo not given in full)
18: NC(=O)[C@@H]1CC2(CC(c3cccc(NC(=O)CC(c4ccccc4)c4ccccc4)c3)=NO2)CN1C(=O)COc1ccc(Cl)cc1 (stereo not given in full)
19: CCC(=O)N1CC2(CC(c3cccc(NC(=O)COc4ccc(Cl)cc4)c3)=NO2)C[C@@H]1C(N)=O (stereo not given in full)
20: CCC(=O)Nc1cccc(C2=NOC3(C2)C[C@@H](C(N)=O)N(C(=O)COc2ccc(Cl)cc2)C3)c1 (stereo not given in full)
Compound	16	17	18	19	20
PTHR1 agonist	x	i	i	x	-14%
miR-21 reporter	x	u	u	8%	8%
GLP1R ag	x	-4%	2%	x	-1%
HEK293 tox	x	2%	-21%	x	3%
GLP1R inv ag	x	10µM*	11µM*	x	11%
Pin1 inh	-3%	28%	32%	x	-1%

21: O=S(=O)(c1ccc(F)cc1)N1CCC(n2c(C(F)(F)F)nc3cccnc32)CC1
22: CCCN1CCC(=O)N(C(CSc2ccc(Br)cc2)c2ccccc2)CC1 (stereo not given)
23: CCCCc1ccc(NC(=O)c2ccc(=O)n(Cc3cccc(C)c3)c2)cc1
24: Cn1c(=O)c2sccc2n2c(CCCC(=O)Nc3ccc(Oc4ccc(Cl)cc4)cc3)nnc12
25: O=C(Nc1ccc2nc3n(c(=O)c2c1)CCCCC3)c1c(F)ccc([N+](=O)[O-])c1F
Compound	21	22	23	24	25
PTHR1 agonist	-11%	x	-40%	-95%	-19%
miR-21 reporter	10%	x	u	u	u
GLP1R ag	x	x	-5%	x	-3%
HEK293 tox	-3%	x	-22%	-7%	u
GLP1R inv ag	-2%	x	7.1µM*	5%	u
Pin1 inh	-4%	-5%	6%	10%	0%

26: O=C(Nc1ccc2nc3n(c(=O)c2c1)CCCCC3)c1cc([N+](=O)[O-])ccc1F
27: Cc1ccc(NS(=O)(=O)c2ccc3c(c2)N(C)C(=O)CO3)cc1C
28: CCOC(=O)c1ccccc1S(=O)(=O)N1CCN(c2nc(-c3cccs3)nc3ccccc23)CC1
29: COc1ccc(S(=O)(=O)n2nc(-c3ccc(Cl)cc3)cc2N)cc1
30: Cc1ccc(S(=O)(=O)Nc2cc(Br)cc3cccnc23)cc1
Compound	26	27	28	29	30
PTHR1 agonist	-6%	x	x	-36%	x
miR-21 reporter	u	x	x	u	x
GLP1R ag	-3%	x	x	4%	x
HEK293 tox	u	x	x	-19%	x
GLP1R inv ag	11µM*	x	x	10µM*	x
Pin1 inh	0%	4%	4%	-3%	-2%

Numbers 28 through 30 of the list above:
28: CCOC(=O)c1ccccc1S(=O)(=O)N1CCN(c2nc(-c3cccs3)nc3ccccc23)CC1
29: COc1ccc(S(=O)(=O)n2nc(-c3ccc(Cl)cc3)cc2N)cc1
30: Cc1ccc(S(=O)(=O)Nc2cc(Br)cc3cccnc23)cc1
Compound	28	29	30
PTHR1 agonist	x	-36%	x
miR-21 reporter	x	u	x
GLP1R ag	x	4%	x
HEK293 tox	x	-19%	x
GLP1R inv ag	x	10µM*	x
Pin1 inh	4%	-3%	-2%

Remaining list, next part:
31: Cc1ccc(C)c(C(=O)Cn2ncc(Cl)c(Cl)c2=O)c1
32: Cc1ccc(S(=O)(=O)N2CCCCC2)cc1NC(=O)CNC(C)c1ccc(Cl)c(Cl)c1 (stereo not given)
33: Cc1ccc(S(=O)(=O)N2CCCCC2)cc1NC(=O)Cn1ncc(Cl)c(Cl)c1=O
34: Cc1ccc(C)c(OCCC(=O)Nc2cc(S(=O)(=O)N3CCCCC3)ccc2C)c1
35: Cc1ccc(S(=O)(=O)N2CCCCC2)cc1NC(=O)Cn1cnnn1
Compound	31	32	33	34	35
PTHR1 agonist	-9%	-56%	-97%	-15%	i
miR-21 reporter	u	x	x	x	-13%
GLP1R ag	-29%	-5%	-14%	14%	1%
HEK293 tox	10µM*	-17%	u	3%	6%
GLP1R inv ag	0%	2.8µM*	10µM*	11µM*	7%
Pin1 inh	2%	7%	u	0%	-1%

36: O=C(NCCCc1cnc[nH]1)NCCCN(Cc1ccc(Cl)c(Cl)c1)c1ccc(Br)cn1
37: CCN(CC)CCOCCOC(=O)C(CC)(CC)c1ccccc1 (tested in a mixture with another compound)
38: Oc1ccc(CNc2ccc(F)cc2F)c2cccnc12
39: Cc1ccc(NC(=O)CSc2nccn2C2CCCC2)cc1
40: N#Cc1ccccc1Cn1c(=O)n(CCCC(=O)NCc2ccccc2Cl)c(=O)c2ccccc21
41: Cc1ccc2c(c1)C(c1ccc(F)cc1)N(C(=O)COc1ccc(Cl)cc1Cl)CC(=O)N2 (stereo not given)
42: CC(C)n1ncc2c(C(=O)Nc3cccc(C#N)c3)cc(C3CC3)nc21
Compound	36	37	38	39	40	41	42
PTHR1 agonist	x	x	x	i	i	i	-32%
miR-21 reporter	x	x	x	-1%	-1%	u	x
GLP1R ag	x	2%	x	x	x	x	-1%
HEK293 tox	x	x	x	4%	3%	-13%	22%
GLP1R inv ag	x	x	x	15%	1%	u	8.9µM*
Pin1 inh	10%	x	5%	8%	7%	35%	10%
